In paper PMC2987690:

Target: Na,K-ATPase α1 subunit (endogenous, MDCK cells) (dog (endogenous in MDCK)) (UniProt P50997)
Test: co-IP

## Na,K-ATPase β1 subunit (endogenous, MDCK cells) (from UniProt P06583 1-303) (natural protein)
  percent of high-mannose β1 subunits bound to α1, YFP-β1-expressing cells: 11%
